Biological target: β-catenin/BCL9 PPI (Homo sapiens (Human), UniProt P35222)
Assay: AlphaScreen competitive inhibition assay, wild-type β-catenin/BCL9 PPI
Format: binding
Details: mean ± SD (n=3)
Method: Cells were cultured in LB medium with 30 μg/mL kanamycin until the OD600 was approximately 0.8, and then protein expression was induced with 400 μM of IPTG at 20° C. overnight. Cells were lysed by sonication. […] Native non-denaturing gel electrophoresis was performed to confirm the homogeneity of the purified proteins. Thermal-shift assay was performed on an iCycler iQ Real Time Detection System (Bio-Rad) to monitor protein stability and detect protein aggregation. Protein unfolding was evaluated through measuring the fluorescence changes of fluorescent dye Sypro Orange when interacting with wild-type or mutant β-catenin proteins. A temperature increment of 1°/min was applied. […] All spectra were recorded at room temperature, and the baseline control containing all of the substances except protein. Sample were prepared at a concentration around 1-5 μM in a buffer of 10 mM potassium phosphate and 100 mM potassium fluoride at pH 7.0 to ensure that the transmission of light through the sample was not restricted. […] Proteins were aliquoted and stored at −80° C.
25. Alphascreen Competitive Inhibition Assays Using Wild-Type and Mutant β-Catenin Proteins

By UniProt entry, the sequences of proteins in these tests, tags left out. Residues count along the entry.
UniProt P35222, 138-686: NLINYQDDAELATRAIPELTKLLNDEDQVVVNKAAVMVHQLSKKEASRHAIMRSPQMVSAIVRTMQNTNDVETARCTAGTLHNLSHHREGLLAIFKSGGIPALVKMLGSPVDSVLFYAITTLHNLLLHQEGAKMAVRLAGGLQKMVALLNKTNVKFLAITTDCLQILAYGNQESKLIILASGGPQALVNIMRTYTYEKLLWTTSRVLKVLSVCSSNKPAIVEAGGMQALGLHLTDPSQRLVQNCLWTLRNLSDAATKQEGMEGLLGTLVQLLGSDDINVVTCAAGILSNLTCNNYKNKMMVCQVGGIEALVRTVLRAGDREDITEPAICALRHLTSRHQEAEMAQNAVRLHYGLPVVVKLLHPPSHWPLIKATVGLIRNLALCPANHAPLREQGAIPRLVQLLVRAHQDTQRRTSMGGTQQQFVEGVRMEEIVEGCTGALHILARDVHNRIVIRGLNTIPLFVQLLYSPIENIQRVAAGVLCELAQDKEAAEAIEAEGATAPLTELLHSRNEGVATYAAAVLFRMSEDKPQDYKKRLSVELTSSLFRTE

## CC1CCC(c2cc(C(=O)N3CCN(C(=O)c4cc(F)cc(N5CCNCC5)c4)CC3)ccc2O[C@H]2CCNC2)CC1.Cl (stereo partly drawn) [Compound 12, (S)-(4-(3-fluoro-5-(piperazin-1-yl)benzoyl)piperazin-1-yl) (3-(4-methylcyclohexyl)-4-(pyrrolidin-3-yloxy)phenyl) methanone hydrochloride]
  Ki: 16 ± 5.5 µM
